Data as given in PubChem BioAssay AID685 (PCMD, 2007).
The entries are a selection whose mix differs from that of the whole data set. Calls of active or inactive are those of the source.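 The calls were made as follows: active = mutant and wild-type yeast strains alike exhibit over 30% growth inhibition; inconclusive = a strain exceeds 50% while the second remains under 30%; inactive = the rest.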

Experiment: S. cerevisiae growth inhibition, turbidity – wild-type and eIF2Bepsilon R284H mutant, A595, cytotoxicity control for eIF2B function restoration project, primary screen (AID 685);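 also: 0% = untreated cell controls and 100% = YPD media blanks without cells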
Details: 16 h, stronger effect = higher value, screened at 25 µM (by protocol)
Summary of the method: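 system = S. cerevisiae wild-type or eIF2Bepsilon-R284H mutant strain | buffer or medium = YPD medium | dosing = one dose, 25 µM compound, 0.2% DMSO | schedule = 16 h at 30 °C | measured by = A595 turbidity | evaluation = growth inhibition (%) versus cell controls and blanks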

| SMILES | growth inhibition |
| --- | --- |
| N#CC1(Nc2ccccc2)CCN(CCc2ccccc2)CC1 | inactive: -17.2% |
| CCC(CO)(C(=O)OC1CN2CCC1CC2)c1ccccc1 (centres undefined) | inactive: 1.21% |
| c1ccc(CN2CCC(Nc3ccccc3)CC2)cc1 | inactive: 23% |
| N/C(=N\O)c1c(N)no[n+]1[O-] | inactive: 20% |
